Measurements published in patent US8436183B2, “Synthetic multimerizing agents” (ARIAD Pharmaceuticals, Inc., priority 1994, dated 2013).

Chains of the proteins cited; added tags and fusions are not shown. Lines headed by an entry give the natural chain unless they say otherwise; changes in a name come on top.
UniProt P62942: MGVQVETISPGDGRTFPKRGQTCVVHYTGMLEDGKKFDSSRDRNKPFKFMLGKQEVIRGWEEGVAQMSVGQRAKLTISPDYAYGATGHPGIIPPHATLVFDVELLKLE

Assays:
Assay type in all cases: cell-based
[1] = biological target: T1, FKBP-containing fusion proteins (wt FKBP) (Homo sapiens, UniProt P62942); test: Transcription Assay: activation of transcription (wt; stable); conditions: @ 1000 nM; each value an individual experiment
T1 construct: FKBP domains probably in several copies

[2] = biological target: T2, FAS-FKBP fusion (wt FKBP) in HT1080 cells (Homo sapiens, UniProt P62942); test: Apoptosis Assay: Fas killing (wt, stable); conditions: @ 1000 nM
T2 construct: fused on or other part: Fas intracellular effector domain (gives the death read-out)

[3] = biological target: T3, FAS-FKBP fusion (36V FKBP) in HT1080 cells (Homo sapiens, UniProt P62942, F37V); test: Apoptosis Assay: Fas killing (36V, stable); conditions: mean values
T3 construct: fused on or other part: Fas intracellular effector domain (gives the death read-out)

In the case of CCC(CC)C(=O)N1CCCC[C@H]1C(=O)O[C@H](CCc1ccc(OC)c(OC)c1)c1cccc(OCC(=O)NCCNC(=O)COc2cccc([C@@H](CCc3ccc(OC)c(OC)c3)OC(=O)[C@@H]3CCCCN3C(=O)C(CC)CC)c2)c1 [AP1891], the “activation of transcription (wt; stable), % @ 1000” value [1] is reported as 0% @ 1000, the “Fas killing (wt, stable), % @ 1000” value [2] is reported as 0% @ 1000 and the EC50 [3] is reported as 20 nM.
